According to patent US20160243223A1, “METHODS FOR TREATING CANCERS COMPRISING K-RAS MUTATIONS” (OncoMed Pharmaceuticals, Inc., priority 2009, published 2016):

Assays:
C8 colon tumor = C8 colon tumor xenograft model (K-ras wild-type)
C40 colon tumor = C40 colon tumor xenograft model (K-ras wild-type)

## cetuximab [Anti-EGFR]
C8 colon tumor; C8, K-ras WT, antibodies 10 mg/kg once a week, irinotecan […] twice per week, intraperitoneally, mean +/- SEM
  Tumor Volume Reduction, % of Control Ab: 47 ± 9 % of Control Ab
C8 colon tumor; C8, wild-type K-ras tumor, FIGS. 1A, 1H, 2A
  effect on tumor growth (in words): inhibited tumor growth
C40 colon tumor; C40, K-ras WT, antibodies 10 mg/kg once a week, irinotecan […] twice per week, intraperitoneally, mean +/- SEM
  Tumor Volume Reduction, % of Control Ab: 54 ± 8 % of Control Ab
C40 colon tumor; C40, wild-type K-ras tumor, FIGS. 1B, 2B
  effect on tumor growth (in words): inhibited tumor growth
